Protein sequences, listed by entry. Tags and fused reporters are not part of them. Residues count along the entry.
UniProt Q14498, 2-530 limits assumed: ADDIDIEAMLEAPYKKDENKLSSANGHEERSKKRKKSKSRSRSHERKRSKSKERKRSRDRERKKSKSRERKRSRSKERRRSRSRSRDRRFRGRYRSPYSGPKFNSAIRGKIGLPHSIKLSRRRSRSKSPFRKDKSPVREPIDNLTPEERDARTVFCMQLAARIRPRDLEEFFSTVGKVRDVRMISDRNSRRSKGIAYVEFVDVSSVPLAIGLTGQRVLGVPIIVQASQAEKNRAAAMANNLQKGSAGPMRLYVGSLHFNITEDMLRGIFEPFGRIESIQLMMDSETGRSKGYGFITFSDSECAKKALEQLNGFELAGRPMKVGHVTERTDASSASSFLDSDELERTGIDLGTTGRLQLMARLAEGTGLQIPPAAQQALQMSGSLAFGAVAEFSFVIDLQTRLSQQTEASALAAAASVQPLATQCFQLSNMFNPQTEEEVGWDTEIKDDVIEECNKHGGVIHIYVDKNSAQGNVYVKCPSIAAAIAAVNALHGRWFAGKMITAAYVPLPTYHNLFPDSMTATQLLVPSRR
UniProt Q66K64, whole entry: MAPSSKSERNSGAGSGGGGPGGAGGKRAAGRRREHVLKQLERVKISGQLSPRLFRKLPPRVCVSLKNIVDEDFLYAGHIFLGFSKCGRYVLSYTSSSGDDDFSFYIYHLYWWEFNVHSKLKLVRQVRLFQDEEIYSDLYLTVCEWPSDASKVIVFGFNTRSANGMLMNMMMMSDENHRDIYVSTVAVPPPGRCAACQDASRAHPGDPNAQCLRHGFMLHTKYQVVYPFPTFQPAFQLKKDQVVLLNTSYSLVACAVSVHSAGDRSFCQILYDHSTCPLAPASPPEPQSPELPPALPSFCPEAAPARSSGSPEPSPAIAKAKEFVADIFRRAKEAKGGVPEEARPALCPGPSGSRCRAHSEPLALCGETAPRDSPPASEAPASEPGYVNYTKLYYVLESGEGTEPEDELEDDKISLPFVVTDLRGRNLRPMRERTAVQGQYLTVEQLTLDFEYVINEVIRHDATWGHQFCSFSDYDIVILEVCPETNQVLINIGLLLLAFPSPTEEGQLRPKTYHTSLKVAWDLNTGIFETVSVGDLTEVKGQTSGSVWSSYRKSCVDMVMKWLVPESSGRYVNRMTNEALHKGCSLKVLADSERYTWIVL

In patent US20240092770A1, “Heterocycle RMB39 Modulators” (Recursion Pharmaceuticals, Inc., priority 2022, published 2024):

Molecular target: RBM39 and the DCAF15 complex (RBM39-Flag / His-DCAF15-DDA1-DDB1) (Homo sapiens (Human), UniProt Q14498+Q66K64)
Assay: DCAF15 RBM39 complex formation TR-FRET assay
Details: RBM39(R150-D331) 3xFlag 50 nM, His-DCAF15-DDA1-DDB1 10 nM, 60 min room temperature
Description: A TR-FRET assay was used to assess the effect of compounds disclosed herein on the interaction between RBM39 and the DCAF15 complex. Test compounds were dissolved to form a 10 mM DMSO stock solution. A 45 μL aliquot of the stock solution was transferred to a 384 pp-plate, and a threefold, 8-point dilution was performed via transferring 15 μL compound solution into 30 μL of DMSO. The plates were then spun at room temperature at 1,000 RPM for 1 minute.
A 30 nL aliquot of the diluted compound was transferred to a 384 well plate, which was incubated at room temperature for 15 minutes. Next, Solutions 1, 2, and 3 were prepared as described in the below tables. A 5 μL aliquot of Solution 2 was added to each well, followed by 5 μL of Solution 3 to start the reaction. The final volume of each well was 10 μL. The plates were incubated at room temperature for 60 minutes, and then read.
Next, an RBM39 (R150-D331) 3× Flag used in TR-FRET assay was prepared:
Recombinant RBM39 protein is composed of the R1R2 of RBM39 (aa 150 to 331; UniProt: Q14498). The coding sequence was sub-cloned into pGEX4T-1-RBM39-flag vector, expressed as a GST-fusion protein with N-terminal TEV protease cleavage site. A 3× Flag tag was added to the C-terminal of R1R2 used in a FRET assay.

EC50: 1.62 µM
Structure (SMILES): O=S(=O)(Nc1ccc(F)c2c(Cl)c[nH]c12)c1nccs1
